Laboratory results published in patent US10022353B2, “Cebranopadol for treating pain in subjects with impaired hepatic and/or impaired renal function” (dated 2018).

Legend:
[1] = Phase I single dose study, pharmacokinetics in subjects with normal and impaired hepatic function; settings: mean, single 200 μg Cebranopadol dose
[2] = Phase I single dose study, safety (adverse events) in subjects with different degrees of impaired renal function
[3] = Phase I single dose study, safety (treatment emergent adverse events) in subjects with normal and impaired hepatic function; settings: single 200 μg dose
[4] = no hepatic impairment (normal hepatic function)
[5] = severe hepatic impairment (Child-Pugh)
[6] = final data, all groups, out of 34 subjects
[7] = final data, mild renal impairment, single 200 μg dose
[8] = final data, moderate renal impairment, single 200 μg dose
[9] = final data, no renal impairment, single 200 μg dose
[10] = final data, severe renal impairment, single 200 μg dose
[11] = preliminary data, all groups, out of 33 subjects
[12] = preliminary data, mild renal impairment
[13] = preliminary data, mild renal impairment, single 200 μg dose
[14] = preliminary data, moderate renal impairment
[15] = preliminary data, moderate renal impairment, single 200 μg dose
[16] = preliminary data, no renal impairment
[17] = preliminary data, no renal impairment, single 200 μg dose
[18] = preliminary data, out of 30 adverse events
[19] = preliminary data, severe renal impairment
[20] = preliminary data, severe renal impairment, single 200 μg dose
[21] = preliminary data, total of all groups

## CN(C)[C@]1(c2ccccc2)CC[C@]2(CC1)OCCc1c3cc(F)ccc3[nH]c12
[1]; [4]
  AUC0-t: 1.7 ng·h/mL
  AUC0-∞: 2.056 ng·h/mL
  Cmax: 0.081 ng/mL
  Tmax: 5.8 h
[1]; [5]
  AUC0-t: 1.962 ng·h/mL
  AUC0-∞: 2.863 ng·h/mL
  Cmax: 0.091 ng/mL
  Tmax: 2.9 h
[2]; all groups, single 200 μg dose
  adverse events not reported as related to Cebranopadol: 3
  outcome of adverse events: All events were resolved
  severe adverse events: No severe adverse event was reported
[2]; all renal function groups, single 200 μg dose
  deaths or serious adverse events: No deaths or serious adverse events were reported
[2]; final data, all groups
  moderate adverse events reported: 6
  total adverse events: 30
[2]; [6]
  subjects reporting adverse events (number): 13
  subjects reporting adverse events (percent): 38.2%
[2]; [7]
  number of events: 10
  number of events (percent of the total 30 adverse events): 33.3%
  subjects with adverse events (number): 5
  subjects with adverse events (percent of group): 55.6%
[2]; [8]
  number of events: 9
  number of events (percent of the total 30 adverse events): 30.0%
  subjects with adverse events (number): 3
  subjects with adverse events (percent of group): 33.3%
[2]; [9]
  number of events: 4
  number of events (percent of the total 30 adverse events): 13.3%
  subjects with adverse events (number): 3
  subjects with adverse events (percent of group): 37.5%
[2]; [10]
  number of events: 7
  number of events (percent of the total 30 adverse events): 23.3%
  subjects with adverse events (number): 2
  subjects with adverse events (percent of group): 25.0%
[2]; preliminary data, all groups
  moderate adverse events reported: 7
  total adverse events: 30
[2]; [11]
  subjects reporting adverse events (number): 14
  subjects reporting adverse events (percent): 42.4%
[2]; [12]
  unexpected adverse events: increased blood pressure: 1
  unexpected adverse events: low back pain: 2
  unexpected adverse events: total: 3
[2]; [13]
  number of events: 10
  number of events (percent of the total 30 adverse events): 33.3%
  subjects with adverse events (number): 5
  subjects with adverse events (percent of group): 62.5%
[2]; [14]
  unexpected adverse events: headache: 2
  unexpected adverse events: orbital pain: 1
  unexpected adverse events: total: 3
[2]; [15]
  number of events: 9
  number of events (percent of the total 30 adverse events): 30.0%
  subjects with adverse events (number): 3
  subjects with adverse events (percent of group): 33.3%
[2]; [16]
  unexpected adverse events: headache: 1
  unexpected adverse events: increased blood pressure: 1
  unexpected adverse events: increased frequency of urination: 2
  unexpected adverse events: total: 4
[2]; [17]
  number of events: 4
  number of events (percent of the total 30 adverse events): 13.3%
  subjects with adverse events (number): 3
  subjects with adverse events (percent of group): 37.5%
[2]; [18]
  expected adverse events (percent of adverse events): 63.3%
  expected adverse events such as dizziness, nausea, vomiting, and fatigue (number): 19
  unexpected adverse events (number): 11
  unexpected adverse events (percent of adverse events): 36.7%
[2]; [19]
  unexpected adverse events: electrical shock/soft tissue injury: 1
  unexpected adverse events: total: 1
[2]; [20]
  number of events: 7
  number of events (percent of the total 30 adverse events): 23.3%
  subjects with adverse events (number): 2
  subjects with adverse events (percent of group): 25.0%
[2]; [21]
  unexpected adverse events: electrical shock/soft tissue injury: 1
  unexpected adverse events: headache: 3
  unexpected adverse events: increased blood pressure: 2
  unexpected adverse events: increased frequency of urination: 2
  unexpected adverse events: low back pain: 2
  unexpected adverse events: orbital pain: 1
  unexpected adverse events: total: 11
[2]; single dose 200 μg, subjects with different degrees of renal impairment
  safety and tolerability: safe and well tolerated
[3]; all hepatic function groups
  discontinuation due to treatment emergent adverse events: No subject discontinued the trial
  serious adverse events and deaths: Neither serious adverse events nor deaths were observed
[3]; mild hepatic impairment
  no of subjects with at least one treatment emergent adverse event: 2
  no of subjects with headache: 2
  no of subjects with nausea: 0
[3]; moderate hepatic impairment
  no of subjects with at least one treatment emergent adverse event: 4
  no of subjects with headache: 1
  no of subjects with nausea: 1
[3]; no hepatic impairment
  no of subjects with at least one treatment emergent adverse event: 2
  no of subjects with headache: 1
  no of subjects with nausea: 0
[3]; severe hepatic impairment
  no of subjects with at least one treatment emergent adverse event: 4
  no of subjects with headache: 1
  no of subjects with nausea: 1
[3]; subjects with hepatic impairment
  tolerability: well tolerated
